Amino acid sequences for entries named in this document (tags omitted).
Melanocortin receptor 4 (Homo sapiens), P32245, UniProt P32245, whole entry, looked up: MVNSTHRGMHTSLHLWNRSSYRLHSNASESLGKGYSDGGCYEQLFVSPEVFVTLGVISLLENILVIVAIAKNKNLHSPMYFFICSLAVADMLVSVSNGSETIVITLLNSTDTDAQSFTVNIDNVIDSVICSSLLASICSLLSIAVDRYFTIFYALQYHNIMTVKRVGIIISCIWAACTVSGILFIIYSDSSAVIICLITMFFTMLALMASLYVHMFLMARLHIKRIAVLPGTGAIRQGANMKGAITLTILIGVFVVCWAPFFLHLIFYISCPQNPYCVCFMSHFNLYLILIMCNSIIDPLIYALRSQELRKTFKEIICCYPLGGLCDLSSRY

# Screens (PubChem)
# ALR H2O2 inh = blocks human ALR sulfhydryl oxidase activity | inhibition, % (concentration not given with the values) | AID 485317 | P55789 | 290,000 tested, 3.8% active | purified ALR, DTT oxidation, H2O2 HRP-luminol luminescence;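 active = mean and each replicate at 75% or more; inconclusive = only one of the two met; inactive = neither met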;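 note: stock transfer was 7.5 nL into about 7.5 µL; 0% = neutral wells and 100% = wells with inactivated enzyme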
# UUG fidelity = yeast start codon fidelity modulation | S. cerevisiae UUG-firefly luciferase reporter, luminescence/redox ratio | activity score, % at 18.7 µM | 350,000 tested, 0.13% active;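 active = replicate mean at a twofold rise or more, about +100% in these data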;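 also: firefly luciferase made from a UUG start codon reports start codon fidelity; reporter light over untreated wells divided by growth signal over untreated wells; some hits fall short of that in this replicate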
# MC4R antag cAMP = MC4R antagonists of cAMP signaling, primary screen, cell-based, TR-FRET, antagonist arm of biased-ligand search; MC4R-expressing cells, MTII-stimulated cAMP, LANCE TR-FRET; actives 0.48% (n = 360,000); Melanocortin receptor 4 (Homo sapiens), P32245; inhibition, % at 6.5 µM;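 active = inhibition above its plate's cutoff, the mean of tested wells on that plate plus 3 SD, cut at about 29% in these data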
#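 material = U2OS cells stably expressing human melanocortin 4 receptor (MC4R) | also added = Melanotan II challenge | dosing = single nominal compound dose of 6.5 µM | detection = TR-FRET with Eu-cAMP and labeled anti-cAMP, 671 nm | replication = singlicate | timing = compound 30 min, challenge 1 h, detection 1 h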
# MC4R ag barr = MC4R agonists recruiting beta-arrestin, primary screen, cell-based, luminescence, agonist arm of biased-ligand search. Melanocortin receptor 4 (Homo sapiens), P32245. U2OS MC4R beta-arrestin complementation; percent of melanotan II response, DMSO zero. activation, % at 8.9 µM. actives 0.98% (n = 360,000);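 active = activation above a per-plate cutoff, the mean activation of sample wells on that plate plus 3 SD, cut at about 8% in these data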
# HDAC3 inh = HDAC3 deacetylase inhibitors, primary screen, biochemical, fluorescence, cell-free homogeneous; Histone deacetylase 3 (Homo sapiens), O15379; recombinant HDAC3, fluorogenic peptide/trypsin coupled; inhibition, % at 8.3 µM; actives 0.15% (n = 320,000); AID 2718, 2010; in the data active = inhibition above about 26%, passing the limit was not always enough; inconclusive = no clear call, values can overlap the other calls
# NALP1 inh = NALP1 inflammasome inhibitors in reconstituted yeast, colorimetric, S. cerevisiae, triplicate retest | S. cerevisiae NALP1/ASC/caspase-1 growth, X-gal OD620, 72 h | actives 0.61% (n = 280,000) | inhibition, % at 10 µM; in the data active = inhibition mostly above about 24%, no sharp cut-off; inactive = mostly below about 32%
# Numbers stand for hits; – = inactive; ? = inconclusive; · = no result given. In the library only some 4.2% were active in any assay of this set; here they are far more common.
SMILES,ALR H2O2 inh,UUG fidelity,MC4R antag cAMP,MC4R ag barr,HDAC3 inh,NALP1 inh
COCCNC(=O)C[C@@H]1CC[C@H]2[C@@H](COC[C@@H](O)CN2S(=O)(=O)c2ccccc2C)O1,·,–,·,·,·,·
C[C@@H]1CN([C@H](C)CO)C(=O)c2cc(NC(=O)c3ccccc3)ccc2O[C@@H](C)CCCCO[C@@H]1CN(C)C(=O)Cc1ccccc1,·,–,·,·,·,·
C[C@H](CO)N1C[C@H](C)[C@H](CN(C)C(=O)CC2CC2)Oc2cc(-c3ccncc3)ccc2S1(=O)=O,·,–,·,·,·,·
CC(C)N=c1scc(-c2cccs2)n1/N=C/c1ccc(O)c(O)c1O,88,·,–,–,–,–
CN=c1scc(-c2ccccc2F)n1/N=C/c1ccc(O)c(O)c1O,·,–,–,–,·,–
O=C(O)c1ccc(CSc2nc3ccccc3o2)cc1,97,–,–,–,–,–
c1ccc(-c2noc(CSc3nc4ccccc4o3)n2)cc1,86,–,–,–,–,–
CCOC(=O)C(=O)NNc1ccccc1C,98,–,–,–,–,–
CCOC(=O)C(=O)NNc1cccc(C)c1C,98,–,–,–,–,–
CCOC(=O)C(=O)Nc1ccccc1C(=O)OC,–,·,–,–,–,–
CCOC(=O)C(=O)Nc1ccccc1C(N)=O,–,–,–,–,–,–
Cc1oc(-c2ccccc2Cl)nc1CS(=O)(=O)CC(=O)NCCN1CCOCC1,93,–,–,–,·,–
Cc1oc(-c2ccccc2F)nc1CS(=O)(=O)CC(=O)N1CCCCCC1,–,–,–,–,–,–
Cc1oc(-c2cccc(Cl)c2)nc1CS(=O)(=O)CC(=O)NCCN1CCOCC1,95,–,–,–,–,–
COc1cccc(-c2nc(CS(=O)(=O)CC(=O)NCCCN3CCOCC3)c(C)o2)c1,99,–,–,–,–,–
Cc1oc(-c2ccccc2Cl)nc1CS(=O)(=O)CC(=O)N1CCOCC1,98,–,–,–,·,–
COc1cccc(-c2nc(CS(=O)(=O)CC(=O)NCCCN3CCc4ccccc4C3)c(C)o2)c1,99,–,–,–,–,–
CCC1CCCCN1CCCNC(=O)CS(=O)(=O)Cc1nc(-c2cccc(OC)c2)oc1C (stereo not given),98,·,–,–,–,–
COc1cccc(-c2nc(CS(=O)(=O)CC(=O)NCCN3CCOCC3)c(C)o2)c1,99,–,–,–,–,–
COc1cccc(-c2nc(CS(=O)(=O)CC(=O)NCCCc3ccccc3)c(C)o2)c1,–,–,–,–,–,–
COc1ccc(-c2nc(CS(=O)(=O)CC(=O)NCCCN3CCOCC3)c(C)o2)cc1,–,–,–,–,–,–
CCN1CCN(C(=O)CS(=O)(=O)Cc2nc(-c3cccc(OC)c3)oc2C)CC1,99,·,–,–,–,–
C[C@@H]1CN([C@@H](C)CO)S(=O)(=O)c2ccc(C3=CCCC3)cc2O[C@H]1CN(C)CC1CCCC1,·,–,·,·,·,·
O=C(O)CNC(=O)CC1S/C(=N/N=C2/NC(=O)CS2)NC1=O (stereo not given),90,·,–,–,–,–
NC(=O)NC(=O)CC1S/C(=N/N=C2\CSC(=O)N2)NC1=O (stereo not given),85,–,–,–,–,–
SMILES,ALR H2O2 inh,UUG fidelity,MC4R antag cAMP,MC4R ag barr,HDAC3 inh,NALP1 inh
CCCC(=O)NNc1c2ccccc2nc2ccccc12,99,–,–,–,–,–
O=C(CCCO)NNc1c2ccccc2nc2ccccc12,99,·,–,–,–,–
OCCNc1c2ccccc2nc2ccccc12,–,·,–,–,–,–
C[C@H]1CN([C@@H](C)CO)S(=O)(=O)c2ccc(-c3ccccc3)cc2O[C@H]1CN(C)C(=O)C1CCCCC1,·,–,·,·,·,·
CNC(=O)C[C@H]1CC[C@H]2[C@@H](COc3ccc(NC(=O)c4cccc(F)c4)cc3C(=O)N2C)O1,·,–,·,·,·,·
C[C@H]1CN([C@@H](C)CO)S(=O)(=O)c2ccc(-c3cccc(C#N)c3)cc2O[C@H]1CN(C)C(=O)c1cccnc1,·,–,·,·,·,·
O=C(C[C@H]1C[C@H]2c3cc(NC(=O)Nc4ccccc4F)ccc3O[C@H]2[C@H](CO)O1)NCC1CC1,·,–,·,·,·,·
Cc1ccc(Cl)cc1OCC(=O)NCCOC(=O)Nc1sc(=S)n(C)c1C,–,·,–,–,–,–
CCOC(=O)Nc1sc(=S)n(C)c1C,93,–,–,–,–,–
Cc1ccc(S(=O)(=O)NCCOC(=O)Nc2sc(=S)n(C)c2C)cc1,–,–,–,–,–,–
Cc1cc(Cl)ccc1OCC(=O)NCCOC(=O)Nc1sc(=S)n(C)c1C,–,·,–,–,–,–
Cc1c(NC(=O)OCCNC(=O)COc2ccc(Cl)cc2Cl)sc(=S)n1C,97,·,–,–,–,–
Cc1c(NC(=O)OCCNC(=O)Nc2ccccc2)sc(=S)n1C,98,–,–,–,?,–
CCN1CC(c2ccccc2)C(c2ccc(Cl)cc2)=N1 (stereo not given),95,–,–,–,–,–
C[C@H](CO)N1C[C@H](C)[C@@H](CN(C)C(=O)c2cccc(F)c2)Oc2cc(-c3cccc(F)c3)ccc2S1(=O)=O,·,–,·,·,·,·
Cc1c([N+](=O)[O-])c(C(=O)Sc2ccc(Br)cc2)nn1C,99,–,–,–,–,–
CNC[C@H]1Oc2ccc(NC(=O)Nc3cccc4ccccc34)cc2CC(=O)N([C@H](C)CO)C[C@@H]1C,·,–,·,·,·,·
CCOc1ccc(NCc2cccn2-c2nnc(N3CCC(C(=O)NCCCN4CCCCC4)CC3)s2)cc1,99,–,–,–,–,–
CCOc1ccc(NCc2cccn2-c2nnc(N3CCC(C(=O)NCCCN4CCCCC4C)CC3)s2)cc1 (stereo not given),99,–,–,–,–,–
CN1CCN(CCCNC(=O)C2CCN(c3nnc(-n4cccc4)s3)CC2)CC1,–,–,–,–,–,–
CCC1CCCCN1CCCNC(=O)C1CCN(c2nnc(-n3cccc3)s2)CC1 (stereo not given),–,–,–,–,–,–
CCOc1ccc(CCNC(=O)C2CCN(c3nnc(-n4cccc4)s3)CC2)cc1,–,–,–,–,–,42
CCOc1ccc(NCc2cccn2-c2nnc(N3CCC(C(=O)NCCCN4C(C)CCCC4C)CC3)s2)cc1 (stereo not given),99,–,–,–,–,–
C[C@H]1CN([C@@H](C)CO)C(=O)c2cccc(NC(=O)C3CC3)c2O[C@@H]1CN(C)CC1CC1,·,–,·,·,·,·
COCC(=O)N1C[C@@H](C)[C@@H](OC)CN(C)C(=O)c2ccc(NC(=O)c3ccccc3)cc2OC[C@H]1C,·,–,·,·,·,·
